The target of the assay is T1, mTOR (Homo sapiens, UniProt P42345).
T1 construct: 2.5 μl of 0.6 μg/ml of mTOR Enzyme (Amgen) was added to rows 1-23
The experiment in a line: mTOR LanthaScreen (TR-FRET, phosphorylation of 4EBP1). The assay is classed as biochemical. The note with it: read-out: AA11016+++mTor_MA_IC50_IP. The protocol: The mTOR LanthaScreen is a TR-FRET assay measuring the phosphorylation of mTOR's substrate 4EBP1. 384 well compound plates were prepared containing 1 μl of compound per well starting at 5 mM and diluted 1:2 across the row, resulting in a 22 well serial dilution.
The assay was conducted on the PerkinElmer® FlexDrop PLUS. A 5 μl mix of 800 nM GFP-4E-BP1 (Invitrogen, PV4759) and 20 μM ATP (Amgen) was added to rows 1-24. 2.5 μl of 0.6 μg/ml of mTOR Enzyme (Amgen) was added to rows 1-23. 2.5 μl of assay buffer was added to row 24 for the low control. […] The final concentrations in the assay reagents were 400 nM GFP-4E-BP1, 10 μM of ATP and 0.15 μg/ml of mTOR enzyme. The compound, enzyme, and substrate incubate for 90 minutes.

Take “mixture of ((4-(5-(3-(hydroxymethyl)-4-methoxyphenyl)-2-(1H-pyrazol-3-ylamino)-1H-benzimidazol-1-yl)-6-methyl-1,3,5-triazin-2-yl)amino)acetonitrile; and ((4-(6-(3-(hydroxymethyl)-4-methoxyphenyl)-2-(1H-pyrazol-3-ylamino)-1H-benzimidazol-1-yl)-6-methyl-1,3,5-triazin-2-yl)amino)acetonitrile [Cpd 126]”: the IC50 came to 7.6 nM.

(Values after patent US20120165334A1, “Indole/Benzimidazole Compounds as mTOR Kinase Inhibitors” (AMGEN INC., priority 2009, published 2012).)
